{"source": "patent US10286079B2", "about": "“Modified cytotoxins and their therapeutic use” (The Regents of the University of California, priority 2015, dated 2019)", "experiment": "Particle size by dynamic light scattering", "assay_type": "physicochemical", "experimental": "Multiple formulations of PTX-FA and HSA were prepared according to the method of Example 14, and varying the molar ratio of PTX-FA to HSA. For each formulation, a particle size analysis was carried out using dynamic light scattering."}
{"substance": "Human serum albumin [Free HSA]", "values": [{"measurement": "Particle Radius", "setting": "average radius", "value": 3.5, "unit": "nm"}, {"measurement": "Percentage of Particles", "setting": "particles having the respective radius", "value": 99.8, "unit": "mass %"}]}
